# Legend:
# Chains of the proteins cited; added tags and fusions are not shown. Lines headed by an entry give the natural chain unless they say otherwise; changes in a name come on top.
# UniProt O14818: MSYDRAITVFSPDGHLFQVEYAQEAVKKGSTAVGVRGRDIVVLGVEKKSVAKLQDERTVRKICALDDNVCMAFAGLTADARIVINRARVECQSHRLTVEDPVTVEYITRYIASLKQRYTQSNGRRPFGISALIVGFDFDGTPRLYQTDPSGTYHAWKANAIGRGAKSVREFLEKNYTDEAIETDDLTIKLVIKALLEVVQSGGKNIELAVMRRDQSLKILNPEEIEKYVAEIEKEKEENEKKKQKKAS
# UniProt P25786: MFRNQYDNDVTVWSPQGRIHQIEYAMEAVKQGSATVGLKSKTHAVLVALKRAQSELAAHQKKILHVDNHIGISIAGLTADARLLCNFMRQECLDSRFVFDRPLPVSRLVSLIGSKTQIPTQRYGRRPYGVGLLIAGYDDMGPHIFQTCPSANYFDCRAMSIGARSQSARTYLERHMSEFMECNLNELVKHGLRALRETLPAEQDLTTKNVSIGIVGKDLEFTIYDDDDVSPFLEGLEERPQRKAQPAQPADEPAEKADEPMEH
# UniProt P25787: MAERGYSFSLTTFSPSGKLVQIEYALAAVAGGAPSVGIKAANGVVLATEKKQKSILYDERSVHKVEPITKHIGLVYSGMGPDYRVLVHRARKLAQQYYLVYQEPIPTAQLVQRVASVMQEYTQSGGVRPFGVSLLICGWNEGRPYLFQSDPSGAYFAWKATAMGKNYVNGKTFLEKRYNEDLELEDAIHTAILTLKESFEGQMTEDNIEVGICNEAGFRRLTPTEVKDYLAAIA
# UniProt P25788: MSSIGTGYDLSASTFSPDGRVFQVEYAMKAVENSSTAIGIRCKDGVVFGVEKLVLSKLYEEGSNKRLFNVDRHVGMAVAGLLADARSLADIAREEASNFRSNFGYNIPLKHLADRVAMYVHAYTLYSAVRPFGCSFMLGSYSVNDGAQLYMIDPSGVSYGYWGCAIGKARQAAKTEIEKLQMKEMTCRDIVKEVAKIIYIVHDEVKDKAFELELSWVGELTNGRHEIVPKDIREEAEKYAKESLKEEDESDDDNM
# UniProt P25789: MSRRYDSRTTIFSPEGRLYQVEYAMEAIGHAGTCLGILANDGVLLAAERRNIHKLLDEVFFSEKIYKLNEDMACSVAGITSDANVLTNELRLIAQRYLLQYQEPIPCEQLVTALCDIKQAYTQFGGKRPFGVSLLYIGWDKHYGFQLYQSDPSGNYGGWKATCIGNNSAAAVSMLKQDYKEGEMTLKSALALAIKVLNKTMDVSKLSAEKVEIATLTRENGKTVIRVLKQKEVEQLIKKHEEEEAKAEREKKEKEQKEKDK
# UniProt P28066: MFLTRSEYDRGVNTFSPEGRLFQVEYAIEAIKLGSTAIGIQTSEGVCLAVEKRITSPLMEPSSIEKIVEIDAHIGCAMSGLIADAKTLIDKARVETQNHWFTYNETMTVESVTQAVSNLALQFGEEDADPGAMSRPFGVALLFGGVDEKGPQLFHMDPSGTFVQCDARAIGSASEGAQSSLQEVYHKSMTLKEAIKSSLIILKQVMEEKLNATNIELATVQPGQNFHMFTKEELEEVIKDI
# UniProt P60900: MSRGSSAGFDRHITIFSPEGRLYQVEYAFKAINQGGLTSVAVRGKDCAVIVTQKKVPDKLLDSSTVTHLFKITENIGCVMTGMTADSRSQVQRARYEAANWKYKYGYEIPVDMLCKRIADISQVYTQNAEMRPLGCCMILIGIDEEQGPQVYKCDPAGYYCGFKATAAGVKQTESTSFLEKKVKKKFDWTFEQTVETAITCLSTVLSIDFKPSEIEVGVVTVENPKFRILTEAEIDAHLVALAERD
# Solubility in solvents = type: physicochemical
# [1] = biological target: core particle in cell lysates (UniProt O14818+P25786+P25787+P25788+P25789+P28066+P60900); assay: Fluorescent labelling of cell lysates, nondenaturing PAGE; conditions: Mcf7 and Mcf10A lysates; FIG. 3A
# [2] = biological target: chymotrypsin-like activity of the core particle (CP; 20S) (UniProt O14818+P25786+P25787+P25788+P25789+P28066+P60900); assay: Inhibition of chymotrypsin-like peptidase activity of the proteasome core particle
Substance,Soluble in (Solubility in solvents),Species labelled in cell lysates [1],Inhibitory properties toward the core proteasome after modification of B1 [2]
1-(2-cyclohexyl-2-oxoacetyl)piperidine-3-carboxylic acid,"DMSO, CDCl3",,
"2-(7-nitrobenzo[c][1,2,5]oxadiazol-4-ylamino)ethyl 1-(2-cyclohexyl-2-oxoacetyl)piperidine-2-carboxylate",,decorates only the core particle,does not erase the inhibitory properties

# Reference: patent US10167259B2, “Allosteric inhibitors of proteasome and methods of use thereof” (THE BOARD OF REGENTS OF THE UNIVERSITY OF TEXAS SYSTEM, priority 2013, dated 2019)
